PubChem BioAssay
Only a part is listed here, and it is no random draw. Calls of active or inactive are those of the source. Unless noted, no stated cut-off is given here; in the data, active means binding response below about 72% or above about 130%; inactive means in between.

Protein sequences, listed by entry. Tags and fused reporters are not part of them.
UniProt P09471, whole entry: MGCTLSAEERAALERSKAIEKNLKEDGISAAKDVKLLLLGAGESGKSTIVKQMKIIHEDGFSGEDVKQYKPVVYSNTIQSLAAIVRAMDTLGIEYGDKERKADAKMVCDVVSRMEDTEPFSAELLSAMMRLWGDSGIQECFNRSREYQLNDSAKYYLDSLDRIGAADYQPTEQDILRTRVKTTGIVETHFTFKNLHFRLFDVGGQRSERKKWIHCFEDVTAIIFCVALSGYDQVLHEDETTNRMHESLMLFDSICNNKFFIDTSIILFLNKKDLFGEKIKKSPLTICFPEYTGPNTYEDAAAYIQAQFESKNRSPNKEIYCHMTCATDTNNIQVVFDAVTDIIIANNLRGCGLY
UniProt O15492, whole entry, looked up: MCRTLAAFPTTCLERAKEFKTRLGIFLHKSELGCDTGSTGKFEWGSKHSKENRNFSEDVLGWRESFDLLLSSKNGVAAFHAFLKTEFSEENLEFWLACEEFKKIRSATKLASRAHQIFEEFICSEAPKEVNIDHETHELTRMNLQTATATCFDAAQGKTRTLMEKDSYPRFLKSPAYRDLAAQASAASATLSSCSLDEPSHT
UniProt P49795, whole entry, looked up: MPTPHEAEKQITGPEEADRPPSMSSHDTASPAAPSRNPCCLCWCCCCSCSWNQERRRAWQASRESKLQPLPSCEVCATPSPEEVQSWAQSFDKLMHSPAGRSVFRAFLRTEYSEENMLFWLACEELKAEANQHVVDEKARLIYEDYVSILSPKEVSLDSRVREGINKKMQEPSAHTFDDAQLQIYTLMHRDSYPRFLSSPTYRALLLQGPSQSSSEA

Tests used:
[1] = disruption of biotin probe capture by avidin, counter-screen for RGS protein interaction modulators, biochemical, flow cytometry, bead-based (AID 1783;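 active means inhibition above 50%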;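 further: median green fluorescence of gated singlet beads compared with DMSO control wells; 0% = DMSO wells and 100% = complete loss of bead fluorescence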); details: streptavidin beads, fluorescein-biotin binding, at 10 µM, active compounds read high
[2] = biological target: Guanine nucleotide-binding protein G(o) subunit alpha (Homo sapiens) (UniProt P09471); experiment: RGS8-Galphao binding modulators, confirmation, biochemical, multiplexed bead flow cytometry, single concentration (AID 1836); details: bead-based flow cytometry RGS8-Galphao binding, fluorescence; at 10 µM; actives lie on both sides;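 further: Galphao activated as GDP AlF4 complex before binding bead RGS8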
[3] = biological target: Guanine nucleotide-binding protein G(o) subunit alpha (Homo sapiens) (UniProt P09471); experiment: RGS7-Galphao binding modulators, confirmation, biochemical, multiplexed bead flow cytometry, single concentration (AID 1837; in the data active means response below about 75% or above about 130%; inactive means in between;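 further: fluorescent Galphao activated with GDP and aluminum fluoride binding bead-coupled RGS7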); details: bead-based flow cytometry RGS7-Galphao binding; at 10 µM; actives lie on both sides
[4] = biological target: Regulator of G-protein signaling 16 (Homo sapiens) + Guanine nucleotide-binding protein G(o) subunit alpha (Homo sapiens) (UniProt O15492+P09471); experiment: modulators of RGS16-Galphao protein binding, confirmation, biochemical, single concentration, multiplexed bead flow cytometry (AID 1838; in the data active means response below about 74% or above about 130%; inactive means in between;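 further: Galphao activated as the GDP aluminium fluoride complex binding bead-coupled RGS16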); details: bead-based flow cytometry, at 10 µM, actives lie on both sides
[5] = biological target: Guanine nucleotide-binding protein G(o) subunit alpha (Homo sapiens) (UniProt P09471); experiment: modulators of RGS4-Galphao protein binding, confirmation, biochemical, single concentration, multiplexed bead flow cytometry (AID 1840; in the data active means binding response below about 74% or above about 130%; inactive means in between); details: at 10 µM, actives lie on both sides
[6] = biological target: Guanine nucleotide-binding protein G(o) subunit alpha (Homo sapiens) + Regulator of G-protein signaling 19 (Homo sapiens) (UniProt P09471+P49795); experiment: regulators of RGS19-Galphao binding, confirmation, biochemical, single point, multiplexed bead flow cytometry (AID 1841; in the data active means response below about 50% or above about 160%; inactive means in between;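 further: 100% = no compound control and 0% = blank background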); details: bead-based flow cytometry RGS19-Galphao binding; at 10 µM; actives lie on both sides

O=C(NCC1(N2CCOCC2)CCCCC1)c1cc2ccccc2o1
inactive: inhibition [1] -1.6% | binding response (% of control) [2] 103% | response (percent of control binding) [3] 99% | response (% of control binding) [4] 106% | binding response (% of control) [5] 100% | response (percent of control binding) [6] 109%
